Values of other authors in patent US9682093B2, “Compositions and methods for treating or preventing metabolic syndrome disorders” (CHARLES R. DREW UNIVERSITY OF MEDICINE AND SCIENCE, priority 2012, dated 2017).

Target: androgen receptor
Conditions: cited from earlier work

CC(=O)Nc1ccc(OCC(C)(O)C(=O)Nc2ccc([N+](=O)[O-])c(C(F)(F)F)c2)cc1 (stereo not shown) [S-4]
Ki: 4 ± 0.7 nM
